Laboratory results: paper PMC9127186, “Molecular Basis Underlying Hepatobiliary and Renal Excretion of Phenolic Acids of Salvia miltiorrhiza Roots (Danshen)” (Frontiers in Pharmacology, 2022)

Sequences of proteins named here, by UniProt entry; tags and fusion partners are left off. A change or cut given only in a name is not applied to a line headed by its entry.
UniProt Q63089: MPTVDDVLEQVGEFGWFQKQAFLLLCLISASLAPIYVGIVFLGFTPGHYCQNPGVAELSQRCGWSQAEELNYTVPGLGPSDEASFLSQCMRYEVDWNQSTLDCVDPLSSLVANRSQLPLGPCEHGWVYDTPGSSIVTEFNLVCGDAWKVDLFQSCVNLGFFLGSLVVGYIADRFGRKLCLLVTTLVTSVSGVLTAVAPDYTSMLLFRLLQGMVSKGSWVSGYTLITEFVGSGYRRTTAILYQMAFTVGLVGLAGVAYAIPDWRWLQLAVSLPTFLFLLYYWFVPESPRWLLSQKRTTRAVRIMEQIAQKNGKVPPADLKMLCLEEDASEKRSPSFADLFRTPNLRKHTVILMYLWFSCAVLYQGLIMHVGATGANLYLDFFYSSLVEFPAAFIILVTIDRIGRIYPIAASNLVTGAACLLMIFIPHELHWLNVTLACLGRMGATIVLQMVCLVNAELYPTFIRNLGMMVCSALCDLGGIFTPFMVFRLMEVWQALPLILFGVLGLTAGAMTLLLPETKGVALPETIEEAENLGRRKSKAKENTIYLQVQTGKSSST
UniProt Q9R0W2: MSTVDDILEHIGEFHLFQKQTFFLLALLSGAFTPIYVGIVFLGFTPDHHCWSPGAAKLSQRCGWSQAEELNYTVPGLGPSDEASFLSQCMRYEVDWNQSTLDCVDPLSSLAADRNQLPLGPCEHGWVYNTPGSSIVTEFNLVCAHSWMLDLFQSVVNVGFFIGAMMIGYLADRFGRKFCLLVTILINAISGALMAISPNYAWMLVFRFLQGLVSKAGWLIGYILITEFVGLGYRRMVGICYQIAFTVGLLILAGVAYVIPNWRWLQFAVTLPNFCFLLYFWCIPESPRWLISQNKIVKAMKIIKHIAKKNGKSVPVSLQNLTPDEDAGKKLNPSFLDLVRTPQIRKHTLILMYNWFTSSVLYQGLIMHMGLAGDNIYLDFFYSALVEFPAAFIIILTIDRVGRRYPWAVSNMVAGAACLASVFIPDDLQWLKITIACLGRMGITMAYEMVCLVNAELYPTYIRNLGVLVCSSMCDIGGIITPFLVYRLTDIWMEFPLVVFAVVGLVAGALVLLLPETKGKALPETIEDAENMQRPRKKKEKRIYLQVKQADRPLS
UniProt O15245: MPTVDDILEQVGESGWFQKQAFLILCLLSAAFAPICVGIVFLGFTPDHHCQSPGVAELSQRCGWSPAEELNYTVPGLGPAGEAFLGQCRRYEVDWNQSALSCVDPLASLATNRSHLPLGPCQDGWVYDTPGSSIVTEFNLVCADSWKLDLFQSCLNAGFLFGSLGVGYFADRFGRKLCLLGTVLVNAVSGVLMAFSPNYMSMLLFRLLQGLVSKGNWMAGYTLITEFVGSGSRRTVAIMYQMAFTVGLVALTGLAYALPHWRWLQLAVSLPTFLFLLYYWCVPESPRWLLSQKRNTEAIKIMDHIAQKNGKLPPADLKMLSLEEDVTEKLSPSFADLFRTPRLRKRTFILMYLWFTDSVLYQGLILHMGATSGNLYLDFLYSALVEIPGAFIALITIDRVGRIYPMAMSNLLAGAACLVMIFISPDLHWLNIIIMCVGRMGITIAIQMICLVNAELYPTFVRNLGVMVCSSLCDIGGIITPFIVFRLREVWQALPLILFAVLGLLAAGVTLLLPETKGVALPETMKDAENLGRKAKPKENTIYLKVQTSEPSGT
UniProt O15244: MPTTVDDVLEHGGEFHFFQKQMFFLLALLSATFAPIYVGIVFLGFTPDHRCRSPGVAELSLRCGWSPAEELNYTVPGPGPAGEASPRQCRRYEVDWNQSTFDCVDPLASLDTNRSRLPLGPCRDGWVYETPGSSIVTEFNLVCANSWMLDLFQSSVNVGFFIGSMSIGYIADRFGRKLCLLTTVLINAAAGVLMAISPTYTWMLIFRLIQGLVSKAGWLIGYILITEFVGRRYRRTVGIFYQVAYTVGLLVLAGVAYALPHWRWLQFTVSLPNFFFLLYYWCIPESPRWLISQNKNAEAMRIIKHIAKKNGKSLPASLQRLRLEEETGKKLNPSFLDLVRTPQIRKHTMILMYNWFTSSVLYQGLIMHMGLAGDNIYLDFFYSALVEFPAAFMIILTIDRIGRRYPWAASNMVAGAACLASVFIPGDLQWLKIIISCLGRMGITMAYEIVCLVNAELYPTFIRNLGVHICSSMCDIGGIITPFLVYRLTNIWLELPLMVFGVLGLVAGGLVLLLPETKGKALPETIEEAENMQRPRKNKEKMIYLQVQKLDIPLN

Columns and labels:
Details in all cases: positive substrate 20 μM, 10 min
rat Oct1 = rat Oct1 (Rattus norvegicus, UniProt Q63089); assay: Cellular transport assay, HEK-293 cells expressing rat Oct1
rat Oct2 = rat Oct2 (Rattus norvegicus, UniProt Q9R0W2); assay: Cellular transport assay, HEK-293 cells expressing rat Oct2
human OCT1 = human OCT1 (Homo sapiens, UniProt O15245); assay: Cellular transport assay, HEK-293 cells expressing human OCT1
human OCT2 = human OCT2 (Homo sapiens, UniProt O15244); assay: Cellular transport assay, HEK-293 cells expressing human OCT2

## tetraethylammonium
Rat Oct1
  TransportTC/TransportMC ratio, positive substrate: 8.16 ± 2.40 (TEA)
Rat Oct2
  TransportTC/TransportMC ratio, positive substrate: 7.49 ± 1.62 (TEA)
Human OCT1
  TransportTC/TransportMC ratio, positive substrate: 4.58 ± 0.26 (TEA)
Human OCT2
  TransportTC/TransportMC ratio, positive substrate: 10.0 ± 2.9 (TEA)
